From ChEMBL document CHEMBL4725369, “Multicomponent Synthesis, Binding Mode, and Structure-Activity Relationship of Selective Histone Deacetylase 6 (HDAC6) Inhibitors with Bifurcated Capping Groups” (J Med Chem, 2020) come the findings set out here.

For experiment [1], the species on record is Homo sapiens. Briefly: Selectivity index, ratio of IC50 for inhibition of human recombinant HDAC2 to IC50 for inhibition of human recombinant HDAC6.
For experiment [2], the species on record is Homo sapiens. Nature of the experiment: Selectivity index, ratio of IC50 for inhibition of human recombinant HDAC3 to IC50 for inhibition of human recombinant HDAC6.
The species named for experiment [3] is Homo sapiens. Nature of the experiment: Selectivity index, ratio of IC50 for inhibition of human recombinant HDAC4 to IC50 for inhibition of human recombinant HDAC6.

In the case of `O=C(NO)c1ccc(CN(Cc2nnnn2Cc2ccccc2)C(=O)c2ccccc2C(F)(F)F)cc1`, the Ratio IC50 worked out at 75 in experiment [1], 282 in experiment [2] and 184 in experiment [3].
